Legend:
nrf2−/− mice = assay: BAL fluid analysis after non-lethal LPS challenge, NAC pretreatment; type: in vivo; details: NAC 500 mg/kg ip three doses, 6 h after LPS ip 60 μg per mouse
TNF-α, IL-1β and IL-6 = assay: Real time PCR of proinflammatory genes in lungs after non-lethal LPS challenge, NAC pretreatment; type: in vivo; details: nrf2−/− mice, NAC 500 mg/kg ip three doses, 30 min after LPS ip 60 μg per mouse

For CC(=O)N[C@@H](CS)C(=O)O [NAC, N-acetyl L-cysteine], the “influx of inflammatory cells (BAL fluid)” value (nrf2−/− mice) was “significantly reduced” and the “transcript levels of TNF-α, IL-1β and IL-6 in the lungs” value (TNF-α, IL-1β and IL-6) was “significantly reduced”.

From US20150080462A1, “COMPOSITIONS AND METHODS FOR THE TREATMENT OR PREVENTION OF DISORDERS RELATING TO OXIDATIVE STRESS” (THE JOHNS HOPKINS UNIVERSITY, priority 2005, published 2015)
